Target: T1, IL-23R (Homo sapiens, UniProt Q5VWK5)
T1 construct: host or cells: HEK293
T1 sequence (Q5VWK5 24-629): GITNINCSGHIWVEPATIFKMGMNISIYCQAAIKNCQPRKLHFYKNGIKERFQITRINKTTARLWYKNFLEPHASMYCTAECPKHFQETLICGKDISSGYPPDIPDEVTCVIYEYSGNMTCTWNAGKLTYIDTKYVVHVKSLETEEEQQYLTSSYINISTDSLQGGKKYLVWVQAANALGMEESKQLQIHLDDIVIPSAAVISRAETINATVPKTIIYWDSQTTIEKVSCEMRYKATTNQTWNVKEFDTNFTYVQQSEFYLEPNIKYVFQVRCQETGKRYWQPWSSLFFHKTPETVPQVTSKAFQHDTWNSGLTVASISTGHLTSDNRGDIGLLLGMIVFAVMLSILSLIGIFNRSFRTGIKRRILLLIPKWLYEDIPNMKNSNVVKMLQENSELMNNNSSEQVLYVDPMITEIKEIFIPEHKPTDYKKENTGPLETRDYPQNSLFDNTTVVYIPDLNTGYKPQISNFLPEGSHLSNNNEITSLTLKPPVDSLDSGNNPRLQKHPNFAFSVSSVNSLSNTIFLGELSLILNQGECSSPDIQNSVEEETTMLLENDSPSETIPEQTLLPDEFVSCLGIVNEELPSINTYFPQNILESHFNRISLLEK
Experiment: IL23R Reporter Assay
Format: cell-based
Conditions: HEK293 cells containing IL-23R, IL-12Rβ1 and STAT-inducible luciferase reporter; 10 ng/ml IL-23; 5 h; table titled IL-23 Binding Data

| Substance | IC50 [nM] |
| --- | --- |
| MeCO-r-Abu (1)-N-T-W-K(Ac)-aMeC (1)-AEF-2Nal-THP-E-N-3Pya-Sar-CONH2 [compound 478] | 1.3 |
| MeCO-r-Pen-N-T-7MeW-K(Ac)-Pen-AEF-2Nal-THP-E-N-5MePyridinAla-Sar-CONH2 [compound 345] | 5 |

Source: US20240409598A1, “PEPTIDE INHIBITORS OF INTERLEUKIN-23 RECEPTOR” (Janssen Biotech, Inc., priority 2021, published 2024)
